ChEMBL document CHEMBL4033702, “Challenges in the development of an M4 PAM preclinical candidate: The discovery, SAR, and in vivo characterization of a series of 3-aminoazetidine-derived amides” (Bioorg Med Chem Lett, 2017)

Amino acid sequences for entries named in this document (tags omitted).
UniProt P08173, whole entry: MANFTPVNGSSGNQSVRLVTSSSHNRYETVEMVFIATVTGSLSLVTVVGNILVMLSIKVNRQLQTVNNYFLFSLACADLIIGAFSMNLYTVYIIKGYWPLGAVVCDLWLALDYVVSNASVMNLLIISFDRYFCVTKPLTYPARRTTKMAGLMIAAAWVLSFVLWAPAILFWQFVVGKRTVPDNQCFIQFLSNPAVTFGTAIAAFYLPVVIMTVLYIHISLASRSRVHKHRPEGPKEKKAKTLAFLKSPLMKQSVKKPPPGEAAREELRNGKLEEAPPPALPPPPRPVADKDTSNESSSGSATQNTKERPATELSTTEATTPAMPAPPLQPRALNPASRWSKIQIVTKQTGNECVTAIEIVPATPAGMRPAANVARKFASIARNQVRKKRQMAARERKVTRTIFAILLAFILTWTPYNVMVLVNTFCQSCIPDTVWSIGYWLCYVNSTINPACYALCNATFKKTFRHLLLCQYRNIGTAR

Molecular target: Muscarinic acetylcholine receptor M4 (Homo sapiens, UniProt P08173)

For `Cc1nnc2sc(C(=O)NC3CN(N(C)c4ccc(C(F)(F)F)nc4)C3)c(N)c2c1C`, the pEC50 was “inactive”.

Activity calls are given as the source filed them. The calls are words filed in the database; no cut-off is given here.
